Legend:
[1] = target: T1, Transient receptor potential cation channel subfamily V member 1 (Homo sapiens, UniProt Q8NER1); experiment: Antagonist activity at human TRPV1 expressed in CHOK1 cells assessed as inhibition of pH-induced activity by FLIPR assay; type: functional, cell-based, CHO-K1
[2] = target: T1, Transient receptor potential cation channel subfamily V member 1; experiment: Antagonist activity at human TRPV1 expressed in CHOK1 cells assessed as inhibition of capsaicin-induced activity by FLIPR assay; type: functional, cell-based, CHO-K1

By UniProt entry, the sequences of proteins in these tests, tags left out.
UniProt Q8NER1, whole entry: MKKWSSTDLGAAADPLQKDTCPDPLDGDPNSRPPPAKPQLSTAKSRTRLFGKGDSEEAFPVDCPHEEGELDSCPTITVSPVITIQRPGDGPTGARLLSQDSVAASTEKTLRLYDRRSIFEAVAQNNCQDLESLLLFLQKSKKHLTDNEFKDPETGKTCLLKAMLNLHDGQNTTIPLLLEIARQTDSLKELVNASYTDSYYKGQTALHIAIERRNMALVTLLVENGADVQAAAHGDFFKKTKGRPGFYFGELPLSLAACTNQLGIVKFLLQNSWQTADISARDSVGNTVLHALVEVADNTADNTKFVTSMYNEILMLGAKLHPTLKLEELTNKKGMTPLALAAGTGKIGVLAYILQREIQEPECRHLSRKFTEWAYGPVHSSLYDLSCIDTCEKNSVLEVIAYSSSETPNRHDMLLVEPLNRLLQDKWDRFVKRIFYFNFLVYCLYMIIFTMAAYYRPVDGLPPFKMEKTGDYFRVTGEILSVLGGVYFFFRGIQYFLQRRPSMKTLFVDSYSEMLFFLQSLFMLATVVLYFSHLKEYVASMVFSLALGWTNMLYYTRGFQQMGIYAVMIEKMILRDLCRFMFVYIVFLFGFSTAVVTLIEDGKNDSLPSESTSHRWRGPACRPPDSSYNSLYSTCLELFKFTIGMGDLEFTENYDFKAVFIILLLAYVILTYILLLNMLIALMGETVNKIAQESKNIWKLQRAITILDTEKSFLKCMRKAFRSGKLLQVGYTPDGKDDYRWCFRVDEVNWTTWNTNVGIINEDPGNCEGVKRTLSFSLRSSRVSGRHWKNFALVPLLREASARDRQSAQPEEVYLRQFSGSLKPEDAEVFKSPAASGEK

| IC50 [1] [nM] | Ki [2] [nM] | Compound |
| --- | --- | --- |
| 17.4 | 0.3 | C[C@H](C(=O)NCc1ccc(C(F)(F)F)nc1N1CCC(c2ccccc2)CC1)c1ccc(NS(C)(=O)=O)c(F)c1 |
| 2350 | 7.5 | C[C@@H](C(=O)NCc1ccc(C(F)(F)F)nc1N1CCC(c2ccccc2)CC1)c1ccc(NS(C)(=O)=O)c(F)c1 |
